# Source: PubChem BioAssay AID463190 (Sanford-Burnham Center for Chemical Genomics, 2010)
# Only a part is listed here, and it is no random draw. Active and inactive are the calls of the source.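 How the source made its calls: active means inhibition of at least 40%; inactive means the rest.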
# Assay: growth inhibitors of tim10-1 mutant yeast, primary screen, luminescence, uHTS (AID 463190);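 further: mutant grown at 25 °C; 0% = DMSO wells with yeast and 100% = wells holding no yeast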
# Details: S. cerevisiae tim10-1 ts strain growth, BacTiter-Glo, 24 h; at 20 µM; hits give high values
row,Compound,inhibition
1,N#CC1(Nc2ccccc2)CCN(Cc2ccccc2)CC1,inactive: 5.97%
2,O=C(NCC1(N2CCCCC2)CCCCC1)c1ccc(Cl)s1,inactive: -2.55%
3,O=C(OC1CN2CCC1CC2)C1c2ccccc2Oc2ccccc21 (configuration not stated),inactive: 18%
4,COc1ccc(Cl)cc1C(=O)NCC1(N2CCOCC2)CCCCC1,inactive: 9.39%
5,CCOC(=O)N1CCC(Nc2ccc(OC)cc2)CC1,inactive: 7.91%
6,O=C(NCC1(N2CCCCC2)CCCCC1)c1ccc(Cl)nc1,inactive: 15.2%
7,Cc1cc(C)cc(N(C(=O)c2ccccc2)C2CCN(C(=O)OC(C)(C)C)CC2)c1,inactive: 13.9%
8,O=C(NCC1(N2CCOCC2)CCCCC1)c1cc2ccccc2o1,inactive: 2.83%
9,CSc1ccccc1C(=O)NCC1(N2CCCCC2)CCCCC1,inactive: -8.38%
10,COc1ccc(C(=O)NCC2(N3CCCCC3)CCCCC2)cc1,inactive: 14.7%
11,CC(C)(C)OC(=O)N1CCC(N(C(=O)c2ccccc2)c2ccc(F)cc2)CC1,inactive: 12.5%
12,COc1ccc(C(=O)NCC2(N3CCCCC3)CCCCC2)c(OC)c1OC,inactive: 19.5%
13,O=C(NCC1(N2CCCCC2)CCCCC1)c1ccc(=O)[nH]c1,inactive: -2.01%
14,O=C(NCC1(N2CCCCC2)CCCCC1)c1cccs1,inactive: 7.2%
15,CCOC(=O)N1CCC(Nc2cccc(C)c2)CC1,inactive: -7.55%
16,Cc1ccc(OCC(C)C)c(CN(CCCl)CCCl)c1,inactive: 10.9%
17,CCCCOc1ccc(C(=O)NCC2(N3CCOCC3)CCCCC2)cc1,inactive: 30.3%
18,O=C(NCC1(N2CCCCC2)CCCCC1)c1ccc(F)cc1,inactive: -2.09%
19,COc1ccc(NC2CCN(CCc3ccccc3)CC2)c(OC)c1,inactive: 1.13%
20,CCOC(=O)N1CCC(Nc2ccc(F)cc2)CC1,inactive: -1.06%
21,CCOc1ccc(C)cc1CN(CCCl)CCCl,inactive: -15.7%
22,COc1cc(C(=O)NCC2(N3CCCCC3)CCCCC2)ccc1OC(F)F,inactive: 3.21%
23,O=C(NCC1(N2CCOCC2)CCCCC1)c1cc(=O)[nH]c2ccccc12,inactive: -13.9%

row,Compound,inhibition
1,CN1CCN(CCOC(=O)C(O)(c2ccccc2)c2ccccc2)CC1,inactive: 13.4%
2,CC(C)c1ccc(C(=O)NCC2(N3CCOCC3)CCCCC2)cc1,inactive: 27.2%
3,COc1ccc(NC2CCN(C(=O)OC(C)(C)C)CC2)cc1,inactive: 3.68%
4,O=C(NCC1(N2CCCCC2)CCCCC1)c1cccc(C(F)(F)F)c1,inactive: -8.23%
5,CCN1CCC(Nc2ccc(Cl)cc2)CC1,inactive: -17.3%
6,N#CC1(Nc2ccccc2)CCN(CCc2ccccc2)CC1,inactive: 8.43%
7,CSc1ccc(C(=O)NCC2(N3CCOCC3)CCCCC2)cc1,inactive: 8.33%
8,O=C(NCC1(N2CCCCC2)CCCCC1)c1cccc([N+](=O)[O-])c1,inactive: 3.42%
9,O=C(NCC1(N2CCCCC2)CCCCC1)c1ccc(OC(F)F)cc1,inactive: 21.1%
10,CN1CCC(Nc2cccc(F)c2)CC1,inactive: 0.555%
11,O=C(NCC1(N2CCCCC2)CCCCC1)c1cncc(Br)c1,inactive: -14%
12,COc1cc(OC)c(C(=O)NCC2(N(C)C)CCCCC2)cc1OC,inactive: 3.11%
13,O=C(NCC1(N2CCOCC2)CCCCC1)c1cc(F)c(F)cc1Cl,inactive: -14.5%
14,CC(C)c1ccc(NC2CCN(C(=O)OC(C)(C)C)CC2)cc1,inactive: 21.5%
15,COc1ccc(CN(CCCl)CCCl)cc1Cl,inactive: -6.43%
16,CN(C)c1cccc(C(=O)NCC2(N3CCCCC3)CCCCC2)c1,inactive: 7.14%
17,CCc1cc(C(=O)NCC2(N3CCCCC3)CCCCC2)sc1C,inactive: 2.78%
18,O=C(OC1CN2CCC1CC2)C1c2ccccc2C=Cc2ccccc21 (configuration not stated),inactive: 5.01%
19,CCOC(=O)N1CCC(Nc2ccc(C)cc2)CC1,inactive: 6.94%
20,N/C(=N\O)c1c(N)no[n+]1[O-],inactive: -8.03%
21,COc1ccc(C(=O)NCC2(N3CCOCC3)CCCCC2)cc1OC,inactive: 7.11%
22,COc1cc(C(=O)NCC2(N3CCOCC3)CCCCC2)cc(OC)c1C,inactive: 2.92%
23,O=C(NCC1(N2CCOCC2)CCCCC1)c1cc(Br)ccc1Cl,inactive: 11.5%

row,Compound,inhibition
1,CN(C)C1(CNC(=O)c2cccc(C#N)c2)CCCCC1,inactive: 4.6%
2,c1ccc(CN2CCC(Nc3ccccc3)CC2)cc1,inactive: 0.981%
3,CCCN1CCC(Nc2cc(OC)cc(OC)c2)CC1,inactive: -21.5%
4,N#Cc1ccc(C(=O)NCC2(N3CCCCC3)CCCCC2)cc1,inactive: 8.19%
5,CC(C)(C)OC(=O)N1CCC(N(C(=O)c2ccccc2)c2ccc(Cl)cc2)CC1,inactive: 16.7%
6,O=C(NCC1(N2CCCCC2)CCCCC1)c1ccco1,inactive: -9.99%
7,CN(C)c1ccc(C(=O)NCC2(N3CCCCC3)CCCCC2)cc1,inactive: 6.59%
8,CCN1CCC(Nc2cccc(F)c2)CC1,inactive: -9.53%
9,Cc1ccc(C(=O)NCC2(N3CCCCC3)CCCCC2)o1,inactive: 2.27%
10,Fc1ccccc1NC1CCN(Cc2ccccc2)CC1,inactive: -21%
11,COc1cc(OC)cc(C(=O)NCC2(N3CCCCC3)CCCCC2)c1,inactive: 20.5%
12,CN1CCC(Nc2ccc(Cl)cc2)CC1,inactive: 4.46%
13,CCCOc1ccc(C)cc1CN(CCCl)CCCl,inactive: -13.8%
14,COc1cc(OC)cc(C(=O)NCC2(N3CCOCC3)CCCCC2)c1,inactive: -2.48%
15,COc1cccc(C(=O)N(c2cc(C)cc(C)c2)C2CCN(C(=O)OC(C)(C)C)CC2)c1,inactive: 24.5%
16,CCC(CO)(C(=O)OC1CN2CCC1CC2)c1ccccc1 (configuration not stated),inactive: -14%
17,CC(C)(C)OC(=O)N1CCC(Nc2ccccc2)CC1,inactive: -8.23%
18,O=C(O)C1(Nc2ccccc2)CCN(Cc2ccccc2)CC1,inactive: 11.6%
19,CCCOc1ccc(C(=O)NCC2(N(C)C)CCCCC2)cc1,inactive: 7.28%
20,CCOc1ncccc1C(=O)NCC1(N2CCOCC2)CCCCC1,inactive: 28.1%
21,CN1CCC(Nc2ccc(F)c(Cl)c2)CC1,inactive: -13.5%
